Reference: US20260384438A1, “PYRROLOPYRIMIDINE CARBOXAMIDES” (published 2026)

The chains behind the UniProt entries cited, without tags or fusion partners. Residues count along the entry.
UniProt Q06187, whole entry: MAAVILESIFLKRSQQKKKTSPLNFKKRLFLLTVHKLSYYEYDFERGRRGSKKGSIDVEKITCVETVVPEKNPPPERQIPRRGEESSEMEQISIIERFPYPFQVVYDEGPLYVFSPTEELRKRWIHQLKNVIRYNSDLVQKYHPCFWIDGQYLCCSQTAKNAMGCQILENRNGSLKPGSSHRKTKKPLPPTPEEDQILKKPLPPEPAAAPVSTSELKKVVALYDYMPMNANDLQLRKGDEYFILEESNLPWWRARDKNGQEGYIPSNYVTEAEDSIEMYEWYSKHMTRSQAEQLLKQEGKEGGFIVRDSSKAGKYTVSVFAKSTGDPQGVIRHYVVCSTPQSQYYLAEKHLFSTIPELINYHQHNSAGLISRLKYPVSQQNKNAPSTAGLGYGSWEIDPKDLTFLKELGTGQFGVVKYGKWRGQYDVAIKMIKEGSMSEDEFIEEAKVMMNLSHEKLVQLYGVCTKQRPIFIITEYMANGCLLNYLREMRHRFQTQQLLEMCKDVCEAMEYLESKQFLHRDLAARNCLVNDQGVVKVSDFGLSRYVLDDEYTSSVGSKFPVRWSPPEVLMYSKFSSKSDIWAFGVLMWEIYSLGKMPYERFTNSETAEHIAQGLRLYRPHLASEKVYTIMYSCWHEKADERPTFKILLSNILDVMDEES
UniProt P49759, whole entry: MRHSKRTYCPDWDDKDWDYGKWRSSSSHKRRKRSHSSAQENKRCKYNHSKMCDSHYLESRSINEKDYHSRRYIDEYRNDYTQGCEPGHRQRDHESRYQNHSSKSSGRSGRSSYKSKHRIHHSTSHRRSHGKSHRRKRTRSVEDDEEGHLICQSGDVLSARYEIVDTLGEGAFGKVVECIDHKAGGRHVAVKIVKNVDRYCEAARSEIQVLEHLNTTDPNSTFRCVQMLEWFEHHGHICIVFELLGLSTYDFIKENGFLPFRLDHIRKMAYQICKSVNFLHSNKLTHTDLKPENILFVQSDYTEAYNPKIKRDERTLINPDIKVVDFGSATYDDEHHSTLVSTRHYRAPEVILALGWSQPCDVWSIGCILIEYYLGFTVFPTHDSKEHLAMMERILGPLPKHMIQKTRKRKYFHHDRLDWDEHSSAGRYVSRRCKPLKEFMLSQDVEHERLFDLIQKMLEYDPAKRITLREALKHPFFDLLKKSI
UniProt P49761, whole entry: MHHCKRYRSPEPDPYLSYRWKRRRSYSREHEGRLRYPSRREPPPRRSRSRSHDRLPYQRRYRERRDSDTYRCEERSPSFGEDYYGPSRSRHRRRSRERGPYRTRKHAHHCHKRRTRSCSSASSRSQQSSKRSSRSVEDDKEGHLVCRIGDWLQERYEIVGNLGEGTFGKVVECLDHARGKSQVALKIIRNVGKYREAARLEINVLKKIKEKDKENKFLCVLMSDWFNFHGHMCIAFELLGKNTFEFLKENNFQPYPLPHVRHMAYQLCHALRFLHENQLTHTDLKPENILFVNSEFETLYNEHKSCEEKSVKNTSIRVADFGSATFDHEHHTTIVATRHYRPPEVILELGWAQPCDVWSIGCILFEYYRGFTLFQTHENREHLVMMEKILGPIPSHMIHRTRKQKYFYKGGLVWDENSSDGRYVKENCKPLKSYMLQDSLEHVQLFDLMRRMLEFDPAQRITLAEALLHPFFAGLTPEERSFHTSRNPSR
UniProt P36888, 27-993 limits assumed: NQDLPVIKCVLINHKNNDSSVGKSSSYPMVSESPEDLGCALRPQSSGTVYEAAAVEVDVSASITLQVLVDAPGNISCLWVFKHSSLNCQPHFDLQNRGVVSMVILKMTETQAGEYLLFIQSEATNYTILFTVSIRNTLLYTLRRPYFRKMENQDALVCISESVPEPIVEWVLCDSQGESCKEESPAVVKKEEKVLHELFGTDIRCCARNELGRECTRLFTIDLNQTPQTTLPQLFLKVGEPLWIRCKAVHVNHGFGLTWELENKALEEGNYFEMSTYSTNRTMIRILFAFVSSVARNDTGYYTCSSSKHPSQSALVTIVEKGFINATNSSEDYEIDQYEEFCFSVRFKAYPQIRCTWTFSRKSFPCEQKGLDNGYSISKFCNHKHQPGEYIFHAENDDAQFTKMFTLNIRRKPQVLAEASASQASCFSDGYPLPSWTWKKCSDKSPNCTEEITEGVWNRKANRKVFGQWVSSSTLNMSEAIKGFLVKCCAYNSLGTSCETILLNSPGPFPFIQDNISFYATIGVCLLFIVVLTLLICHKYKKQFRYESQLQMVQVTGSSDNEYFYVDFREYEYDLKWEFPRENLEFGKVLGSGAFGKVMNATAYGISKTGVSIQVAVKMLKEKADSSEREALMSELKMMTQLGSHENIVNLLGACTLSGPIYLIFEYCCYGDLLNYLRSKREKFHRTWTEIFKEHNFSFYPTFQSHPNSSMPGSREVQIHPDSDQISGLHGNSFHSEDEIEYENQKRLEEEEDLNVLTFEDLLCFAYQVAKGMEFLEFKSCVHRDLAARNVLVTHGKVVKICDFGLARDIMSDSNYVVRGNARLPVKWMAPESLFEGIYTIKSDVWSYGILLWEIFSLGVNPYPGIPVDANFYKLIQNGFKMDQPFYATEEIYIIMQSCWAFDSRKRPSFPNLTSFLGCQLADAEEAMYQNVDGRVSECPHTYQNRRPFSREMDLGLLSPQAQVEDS
UniProt Q8IY84, whole entry: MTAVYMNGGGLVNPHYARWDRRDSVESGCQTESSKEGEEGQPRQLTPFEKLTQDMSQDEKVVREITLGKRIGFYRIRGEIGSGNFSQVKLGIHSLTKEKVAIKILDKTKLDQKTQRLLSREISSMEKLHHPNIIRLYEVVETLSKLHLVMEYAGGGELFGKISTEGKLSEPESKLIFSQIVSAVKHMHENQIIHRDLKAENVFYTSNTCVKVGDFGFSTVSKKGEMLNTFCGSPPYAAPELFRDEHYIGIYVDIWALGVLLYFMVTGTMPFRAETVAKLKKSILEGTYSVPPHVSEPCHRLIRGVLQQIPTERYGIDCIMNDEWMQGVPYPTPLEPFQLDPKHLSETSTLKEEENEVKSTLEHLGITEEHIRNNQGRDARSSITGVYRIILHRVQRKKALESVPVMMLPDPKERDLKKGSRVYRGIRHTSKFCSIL
UniProt Q9NQU5, whole entry: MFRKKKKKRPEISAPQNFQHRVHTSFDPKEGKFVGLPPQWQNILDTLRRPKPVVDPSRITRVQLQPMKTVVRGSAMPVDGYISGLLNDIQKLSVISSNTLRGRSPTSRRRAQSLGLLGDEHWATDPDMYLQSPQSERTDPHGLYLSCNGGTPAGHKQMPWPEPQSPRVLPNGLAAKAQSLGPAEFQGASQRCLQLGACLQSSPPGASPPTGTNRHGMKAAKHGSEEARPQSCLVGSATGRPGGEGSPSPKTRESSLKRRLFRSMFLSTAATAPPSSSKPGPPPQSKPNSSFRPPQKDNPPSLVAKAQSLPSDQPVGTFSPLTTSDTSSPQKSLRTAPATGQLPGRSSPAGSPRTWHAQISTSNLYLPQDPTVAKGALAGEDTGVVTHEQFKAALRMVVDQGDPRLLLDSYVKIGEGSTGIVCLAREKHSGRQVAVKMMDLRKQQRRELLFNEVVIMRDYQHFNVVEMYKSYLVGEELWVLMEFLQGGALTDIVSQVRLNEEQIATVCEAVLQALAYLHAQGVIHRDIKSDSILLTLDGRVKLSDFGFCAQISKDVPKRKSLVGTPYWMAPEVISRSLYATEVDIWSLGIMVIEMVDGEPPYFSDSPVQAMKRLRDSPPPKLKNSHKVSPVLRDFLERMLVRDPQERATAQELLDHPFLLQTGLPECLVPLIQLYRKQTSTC
UniProt Q9UK32, whole entry: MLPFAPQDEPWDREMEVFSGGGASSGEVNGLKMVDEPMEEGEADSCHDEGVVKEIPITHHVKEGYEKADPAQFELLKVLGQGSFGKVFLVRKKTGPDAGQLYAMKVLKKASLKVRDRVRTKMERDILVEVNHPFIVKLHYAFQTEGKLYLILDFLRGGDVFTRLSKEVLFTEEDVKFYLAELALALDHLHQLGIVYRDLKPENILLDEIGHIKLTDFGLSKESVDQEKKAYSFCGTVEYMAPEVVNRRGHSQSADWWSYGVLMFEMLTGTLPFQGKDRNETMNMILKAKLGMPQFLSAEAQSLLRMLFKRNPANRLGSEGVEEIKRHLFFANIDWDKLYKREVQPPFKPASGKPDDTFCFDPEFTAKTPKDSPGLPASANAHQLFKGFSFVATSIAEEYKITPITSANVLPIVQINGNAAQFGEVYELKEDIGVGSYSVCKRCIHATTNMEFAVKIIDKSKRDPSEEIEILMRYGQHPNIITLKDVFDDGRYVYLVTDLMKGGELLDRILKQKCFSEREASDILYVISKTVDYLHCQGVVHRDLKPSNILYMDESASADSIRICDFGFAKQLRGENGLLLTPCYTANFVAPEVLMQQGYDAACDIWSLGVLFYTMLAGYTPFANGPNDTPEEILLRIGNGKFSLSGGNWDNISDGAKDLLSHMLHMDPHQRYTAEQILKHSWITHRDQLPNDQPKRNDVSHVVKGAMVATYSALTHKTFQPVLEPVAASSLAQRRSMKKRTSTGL
UniProt Q9HBY8, whole entry: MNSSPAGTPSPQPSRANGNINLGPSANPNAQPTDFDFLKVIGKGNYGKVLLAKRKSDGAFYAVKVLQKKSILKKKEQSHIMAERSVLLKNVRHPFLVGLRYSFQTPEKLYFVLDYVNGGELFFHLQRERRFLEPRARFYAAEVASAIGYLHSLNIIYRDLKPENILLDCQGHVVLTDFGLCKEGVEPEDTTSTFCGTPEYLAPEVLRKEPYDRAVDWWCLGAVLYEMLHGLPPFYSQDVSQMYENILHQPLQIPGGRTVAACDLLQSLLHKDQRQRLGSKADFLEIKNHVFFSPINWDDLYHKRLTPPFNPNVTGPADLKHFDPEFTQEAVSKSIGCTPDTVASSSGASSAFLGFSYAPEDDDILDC
UniProt Q13470, whole entry: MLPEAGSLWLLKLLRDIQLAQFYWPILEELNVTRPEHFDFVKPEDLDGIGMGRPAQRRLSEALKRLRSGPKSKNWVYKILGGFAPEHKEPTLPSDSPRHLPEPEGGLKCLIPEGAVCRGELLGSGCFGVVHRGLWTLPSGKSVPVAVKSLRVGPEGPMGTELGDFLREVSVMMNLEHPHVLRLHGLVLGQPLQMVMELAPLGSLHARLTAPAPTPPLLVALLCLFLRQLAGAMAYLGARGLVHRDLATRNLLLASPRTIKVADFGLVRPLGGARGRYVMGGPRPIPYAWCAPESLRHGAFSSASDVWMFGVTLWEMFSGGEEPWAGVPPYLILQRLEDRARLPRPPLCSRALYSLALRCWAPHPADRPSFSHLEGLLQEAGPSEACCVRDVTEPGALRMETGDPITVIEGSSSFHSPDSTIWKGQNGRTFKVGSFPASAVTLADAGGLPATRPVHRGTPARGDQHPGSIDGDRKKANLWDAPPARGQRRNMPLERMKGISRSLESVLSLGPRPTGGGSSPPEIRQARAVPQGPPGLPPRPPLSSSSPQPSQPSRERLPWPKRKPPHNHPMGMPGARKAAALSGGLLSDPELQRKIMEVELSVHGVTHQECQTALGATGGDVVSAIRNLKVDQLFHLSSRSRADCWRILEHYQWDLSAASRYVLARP
UniProt Q76MJ5, 35-926 limits assumed: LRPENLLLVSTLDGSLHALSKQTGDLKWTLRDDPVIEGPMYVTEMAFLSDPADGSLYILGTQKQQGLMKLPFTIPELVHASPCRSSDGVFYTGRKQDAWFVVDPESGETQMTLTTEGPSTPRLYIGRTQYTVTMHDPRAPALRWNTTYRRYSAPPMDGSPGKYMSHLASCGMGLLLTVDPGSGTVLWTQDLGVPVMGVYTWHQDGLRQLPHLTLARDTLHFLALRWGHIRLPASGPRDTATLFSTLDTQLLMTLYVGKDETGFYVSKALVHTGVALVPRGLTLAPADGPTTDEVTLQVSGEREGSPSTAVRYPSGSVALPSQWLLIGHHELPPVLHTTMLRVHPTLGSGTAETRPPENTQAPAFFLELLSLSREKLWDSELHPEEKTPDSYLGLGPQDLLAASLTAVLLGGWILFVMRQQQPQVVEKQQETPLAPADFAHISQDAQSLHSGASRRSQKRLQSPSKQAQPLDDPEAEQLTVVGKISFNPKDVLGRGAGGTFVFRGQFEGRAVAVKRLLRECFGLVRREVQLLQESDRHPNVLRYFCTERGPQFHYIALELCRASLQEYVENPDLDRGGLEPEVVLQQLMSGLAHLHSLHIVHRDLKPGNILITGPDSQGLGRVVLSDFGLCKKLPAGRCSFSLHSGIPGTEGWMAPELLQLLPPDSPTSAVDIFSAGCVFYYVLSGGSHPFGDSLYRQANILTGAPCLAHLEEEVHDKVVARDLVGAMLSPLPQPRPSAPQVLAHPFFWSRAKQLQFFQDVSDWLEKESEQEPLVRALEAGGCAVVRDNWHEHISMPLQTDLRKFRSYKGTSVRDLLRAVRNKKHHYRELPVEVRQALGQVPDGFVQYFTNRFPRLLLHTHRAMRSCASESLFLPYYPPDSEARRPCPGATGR

What was measured:
CYP2C9 = CYP2C9 (Homo sapiens, UniProt P11712); experiment: CYP time dependent inhibition, CYP2C9; conditions: 10 μM, 30 min preincubation, HLM
CYP3A = experiment: CYP time dependent inhibition, CYP3A; conditions: 10 μM, 30 min preincubation, HLM
[1] = Aqueous (thermodynamic) solubility, pH 7.4; conditions: 0.1 M phosphate buffer pH 7.4, 24 h, 25 °C
PKMYT1 KO SKOV3 cells = experiment: In vitro efficacy in combination with exatecan, PKMYT1 KO SKOV3; conditions: with exatecan 1 nM, 7 days
SW620 tumors = experiment: Pharmacodynamic effect in human colorectal SW620 xenograft model (athymic nude mice), immunoblotting
[2] = In vitro biotransformation in dog hepatocytes; conditions: 5 μM, 180 min
AKT1 (PKB alpha) = AKT1 (PKB alpha) (Homo sapiens, UniProt P31749); experiment: Kinase profiling, Z-Lyte; conditions: 1 μM, KmATP
AKT3 (PKB gamma) = AKT3 (PKB gamma) (Homo sapiens, UniProt Q9Y243); experiment: Kinase profiling, Z-Lyte; conditions: 1 μM, KmATP
BTK = BTK (Homo sapiens, UniProt Q06187); experiment: Kinase profiling, Z-Lyte; conditions: 1 μM, KmATP
CAMK1D = CAMK1D (Homo sapiens, UniProt Q8IU85); experiment: Kinase profiling, Z-Lyte; conditions: 1 μM, KmATP
CAMK1G = CAMK1G (Homo sapiens, UniProt Q96NX5); experiment: Kinase profiling, Z-Lyte; conditions: 1 μM, KmATP
CDK2/cyclin A = CDK2/cyclin A (Homo sapiens, UniProt P24941); experiment: Kinase profiling, Z-Lyte; conditions: 1 μM, KmATP
CDKL5 = CDKL5 (Homo sapiens, UniProt O76039); experiment: Kinase profiling, Z-Lyte; conditions: 1 μM, KmATP
CLK1 = CLK1 (Homo sapiens, UniProt P49759); experiment: Kinase profiling, Z-Lyte; conditions: 1 μM, KmATP
CLK3 = CLK3 (Homo sapiens, UniProt P49761); experiment: Kinase profiling, Z-Lyte; conditions: 1 μM, KmATP
CSNK1G3 (CK1gamma3) = CSNK1G3 (CK1gamma3) (Homo sapiens, UniProt Q9Y6M4); experiment: Kinase profiling, Z-Lyte; conditions: 1 μM, KmATP
EPHA4 = EPHA4 (Homo sapiens, UniProt P54764); experiment: Kinase profiling, Z-Lyte
EPHB4 = EPHB4 (Homo sapiens, UniProt P54760); experiment: Kinase profiling, Z-Lyte
FLT3 Hu Phos = FLT3 Hu Phos (Homo sapiens, UniProt P36888); experiment: Kinase profiling, Z-Lyte; conditions: 1 μM, KmATP
HIPK1 (Myak) = HIPK1 (Myak) (Homo sapiens, UniProt Q86Z02); experiment: Kinase profiling, Z-Lyte; conditions: 1 μM, KmATP
IKBKB (IKKbeta) = IKBKB (IKKbeta) (Homo sapiens, UniProt O14920); experiment: Kinase profiling, Z-Lyte; conditions: 1 μM, KmATP
IKBKE (IKK epsilon) = IKBKE (IKK epsilon) (Homo sapiens, UniProt Q14164); experiment: Kinase profiling, Z-Lyte; conditions: 1 μM, KmATP
MELK = MELK (Homo sapiens, UniProt Q14680); experiment: Kinase profiling, Z-Lyte; conditions: 1 μM, KmATP
NIM1K = NIM1K (Homo sapiens, UniProt Q8IY84); experiment: Kinase profiling, Z-Lyte; conditions: 1 μM, KmATP
PAK3 = PAK3 (Homo sapiens, UniProt O75914); experiment: Kinase profiling, Z-Lyte; conditions: 1 μM, KmATP
PAK6 = PAK6 (Homo sapiens, UniProt Q9NQU5); experiment: Kinase profiling, Z-Lyte; conditions: 1 μM, KmATP
PRKCA (PKC alpha) = PRKCA (PKC alpha) (Homo sapiens, UniProt P17252); experiment: Kinase profiling, Z-Lyte; conditions: 1 μM, KmATP
ROCK1 = ROCK1 (Homo sapiens, UniProt Q13464); experiment: Kinase profiling, Z-Lyte; conditions: 1 μM, KmATP
RPS6KA6 (RSK4) = RPS6KA6 (RSK4) (Homo sapiens, UniProt Q9UK32); experiment: Kinase profiling, Z-Lyte; conditions: 1 μM, KmATP
RPS6KB1 (p70S6K) = RPS6KB1 (p70S6K) (Homo sapiens, UniProt P23443); experiment: Kinase profiling, Z-Lyte; conditions: 1 μM, KmATP
SBK1 = SBK1 (Homo sapiens, UniProt Q52WX2); experiment: Kinase profiling, Z-Lyte; conditions: 1 μM, KmATP
SGK2 = SGK2 (Homo sapiens, UniProt Q9HBY8); experiment: Kinase profiling, Z-Lyte; conditions: 1 μM, KmATP
SNF1LK2 = SNF1LK2 (Homo sapiens, UniProt Q9H0K1); experiment: Kinase profiling, Z-Lyte; conditions: 1 μM, KmATP
TNK1 = TNK1 (Homo sapiens, UniProt Q13470); experiment: Kinase profiling, Z-Lyte; conditions: 1 μM, KmATP
TYRO3 (RSE) = TYRO3 (RSE) (Homo sapiens, UniProt Q06418); experiment: Kinase profiling, Z-Lyte; conditions: 1 μM, KmATP
ERN2 = ERN2 (Homo sapiens, UniProt Q76MJ5); experiment: KAT chemical proteomics
MET = MET (Homo sapiens, UniProt P08581); experiment: KAT chemical proteomics
MNAT1 = experiment: KAT chemical proteomics
PRKCQ = PRKCQ (Homo sapiens, UniProt Q04759); experiment: KAT chemical proteomics
RAF1 = RAF1 (Homo sapiens, UniProt P04049); experiment: KAT chemical proteomics
[3] = 100 mg/kg BID 3 days + irinotecan hydrochloride 50 mg/kg

Cc1nc(C(F)(F)F)c2c(C(N)=O)c(N)n(-c3c(C)ccc(O)c3C)c2n1 (single isomer, unassigned)
% time dependent inhibition (TDI), CYP2C9 (CYP2C9): less than 20%
% time dependent inhibition (TDI), CYP3A (CYP3A): less than 20%
Solubility pH 7.4 [1]: 1541 μM
added effect on exatecan (1 nM) activity (PKMYT1 KO SKOV3 cells): did not improve further
DNA damage formation (gH2AX), potentiation by addition to irinotecan hydrochloride (SW620 tumors; [3]): not further potentiated
mitotic population (phospho-histone H3 Ser10) (SW620 tumors; [3]): did not result in a reduced mitotic population
PKMYT1 target engagement (Phospho-CDK1 Thr14) (SW620 tumors; 100 mg/kg BID 3 days, absence or presence of irinotecan hydrochloride): PKMYT1 target engagement
Glucuronidation [2]: M (Major (>10%))
Oxidation [2]: M (Major (>10%))
MEAN INHIBITION (AKT1 (PKB alpha)): 1.061%
MEAN INHIBITION (AKT3 (PKB gamma)): 2.961%
MEAN INHIBITION (BTK): 16.116%
MEAN INHIBITION (CAMK1D): 6.089%
MEAN INHIBITION (CAMK1G): 6.787%
MEAN INHIBITION (CDK2/cyclin A): 6.868%
MEAN INHIBITION (CDKL5): −1.234%
MEAN INHIBITION (CLK1): 0.999%
MEAN INHIBITION (CLK3): 5.160%
MEAN INHIBITION (CSNK1G3 (CK1gamma3)): 1.739%
MEAN INHIBITION (EPHA4; 1 μM, KmATP): 34.195%
IC50 (EPHA4; 10-point CR, ATP 100.000 μM): 1140 nM
MEAN INHIBITION (EPHB4; 1 μM, KmATP): 59.449%
IC50 (EPHB4; 10-point CR, ATP 100.000 μM): 466 nM
MEAN INHIBITION (FLT3 Hu Phos): 6.895%
MEAN INHIBITION (HIPK1 (Myak)): 1.992%
MEAN INHIBITION (IKBKB (IKKbeta)): 3.452%
MEAN INHIBITION (IKBKE (IKK epsilon)): 3.320%
MEAN INHIBITION (MELK): 11.594%
MEAN INHIBITION (NIM1K): 0.982%
MEAN INHIBITION (PAK3): 2.463%
MEAN INHIBITION (PAK6): 1.993%
MEAN INHIBITION (PRKCA (PKC alpha)): 0.422%
MEAN INHIBITION (ROCK1): 2.834%
MEAN INHIBITION (RPS6KA6 (RSK4)): 14.718%
MEAN INHIBITION (RPS6KB1 (p70S6K)): 1.466%
MEAN INHIBITION (SBK1): 2.962%
MEAN INHIBITION (SGK2): −1.482%
MEAN INHIBITION (SNF1LK2): 11.712%
MEAN INHIBITION (TNK1): 2.840%
MEAN INHIBITION (TYRO3 (RSE)): 2.535%
RB50 (ERN2): >50 µM
RB50 (MET): >50 µM
RB50 (MNAT1): >50 µM
RB50 (PRKCQ): >50 µM
RB50 (RAF1): >50 µM
